Experimental data: PubChem BioAssay AID2066 (NMMLSC, 2009)
The list shows a part of the results, in another mix than the full data. Calls of active or inactive are those of the source.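 The calls were made as follows: active = GFP response relative to DMSO above a set limit, near screen average plus 3 SD (cut at about 150% in these data); inconclusive = fewer than 70 cells counted for the yeast strain; inactive = the rest.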

Assay: yeast AGP1-GFP level changes, GLN3 branch – cell-based, multiplex flow cytometry, S. cerevisiae, MLPCN library, primary screen (AID 2066);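 also: median GFP channel fluorescence of the gated AGP1 strain per well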
Conditions: 3 h, at 10 µM, active compounds read high, GFP as percent of DMSO wells

Row | Compound | GFP response vs DMSO
1 | CN(C(=O)Cc1ccc(Cl)c(Cl)c1)[C@H]1CCCC[C@H]1N1CCCC1 | inactive: 90%
2 | NC(=O)c1cc([N+](=O)[O-])cc([N+](=O)[O-])c1N | inactive: 94%
3 | Clc1ccc(Cl)c(NC2=NCC(CBr)S2)c1 (configuration not stated) | inactive: 89.2%
4 | CN1CCCC(OC(=O)C(c2ccccc2)c2ccccc2)C1 (configuration not stated) | inactive: 105%
5 | Cc1ccc(OP(=O)(Nc2nccs2)Oc2ccc(C)cc2)cc1 | inactive: 109%
6 | COc1ccccc1OP(=O)(Nc1ccc(C)cn1)Oc1ccccc1OC | inactive: 101%
7 | Cc1c2non([O-])c-2c(C)[n+](=O)[n+]1[O-] | inactive: 92.3%
8 | O=C(NC(Sc1ccncn1)C(Cl)(Cl)Cl)c1ccccc1 (configuration not stated) | inactive: 102%
9 | Oc1ccccc1CNc1ccccn1 | inactive: 98.7%
10 | CC(C)CC(=O)NC(Sc1ccc(Cl)cc1)C(Cl)(Cl)Cl (configuration not stated) | inactive: 102%
11 | Nc1cc(N)c2nonc2c1[N+](=O)[O-] | inactive: 99.6%
12 | CCOc1ccc(C2=NCC(CBr)S2)cc1 (configuration not stated) | inactive: 103%
13 | O=P1(Nc2nc3ccc(Cl)cc3s2)COc2ccccc2O1 (configuration not stated) | inactive: 98.1%
14 | CC(C)(C)C(=O)NC(Sc1ccccc1)C(Cl)(Cl)Cl (configuration not stated) | inactive: 88.6%
15 | C[C@@H]1C=CCP(=O)(Oc2ccccc2)O1 (some centres not stated) | inactive: 89.8%
16 | C[C@H]1OP(=O)(Oc2ccccc2)C[C@@H]2O[C@@H]21 (some centres not stated) | inactive: 89.1%
17 | Cc1ccccc1CN(C)C(=O)COC(=O)C(O)(c1ccccc1)c1ccccc1 | inactive: 106%
18 | CC(=O)c1ccc(N2CC2c2ccncc2)cc1 (configuration not stated) | inactive: 100%
19 | CC(=O)Nc1ccc(Oc2c([N+](=O)[O-])cc([N+](=O)[O-])cc2[N+](=O)[O-])cc1 | inactive: 94.8%
20 | CC(=O)Nc1ccc([As](=O)(O)O)c(O)c1 | inactive: 99.7%
21 | CCOC(=O)NC(Sc1ccccc1)C(Cl)(Cl)Cl (configuration not stated) | inactive: 105%
22 | Cc1ccc(NP(=O)(Oc2cccc(C)c2)Oc2cccc(C)c2)nc1 | inactive: 96.8%
23 | c1ccc(-c2nn[nH]n2)c(-c2nn[nH]n2)c1 | inactive: 99%
24 | CCNC(=S)/N=C(\N)N[N+](=O)[O-] | inactive: 103%

Row | Compound | GFP response vs DMSO
25 | O=C(NC1CCS(=O)(=O)C1)NP(=S)(Oc1ccccc1)Oc1ccccc1 (configuration not stated) | inactive: 95.7%
26 | CCC(=O)N1C2C3N(C(=O)CC)C1C1N(C(=O)CC)C(C(N1C(=O)CC)N3C(=O)CC)N2C(=O)CC | inactive: 106%
27 | O=C(OC1CN2CCC1CC2)c1ccccc1 (configuration not stated) | inactive: 96.5%
28 | Cc1ccc(OP(=O)(Nc2ccccn2)Oc2ccc(C)cc2)cc1 | inactive: 100%
29 | CC(=O)NC(SC(=S)N(CC(C)C)CC(C)C)C(Cl)(Cl)Cl (configuration not stated) | inactive: 93.7%
30 | COC(=O)c1cc2c(s1)N=C(c1ccccc1)N(C)P2(=O)N1CCOCC1 (configuration not stated) | inactive: 111%
31 | CN(C)C(=O)Oc1noc2ccccc12 | inactive: 93.3%
32 | Cc1ccccc1OP(=O)(Nc1ccccn1)Oc1ccccc1C | inactive: 101%
33 | CC(NC(=O)COC(=O)C(O)(c1ccccc1)c1ccccc1)c1ccccc1 (configuration not stated) | inactive: 99.8%
34 | O=P(Nc1ccccn1)(c1ccc(Br)cc1)c1ccc(Br)cc1 | inactive: 106%
35 | CN(C)C1(CNC(=O)c2ccc(Cl)c(S(N)(=O)=O)c2)CCCCC1 | inactive: 98.6%
36 | C[C@H]1OP(=O)(Oc2ccccc2)[C@H](O)[C@H](O)[C@H]1N=[N+]=[N-] (some centres not stated) | inactive: 84.8%
37 | O=P(Nc1nc2ccccc2s1)(c1ccccc1)c1ccccc1 | inactive: 112%
38 | O=[As](O)(c1ccccc1)c1ccc(O)cc1 | inactive: 99.8%
39 | O=[N+]([O-])c1ccc(O)c(/C=N/Nc2ccc([N+](=O)[O-])cc2[N+](=O)[O-])c1 | inactive: 99.2%
40 | O=[N+]([O-])c1ncn(CCn2cnc([N+](=O)[O-])n2)n1 | inactive: 102%
41 | CC(=O)NC(SC(=S)N(C)C)C(Cl)(Cl)Cl (configuration not stated) | inactive: 94%
42 | O=C(OC1CN2CCC1CC2)c1cccc(Cl)c1 (configuration not stated) | inactive: 106%
43 | Nc1ccc([As](=O)(O)c2ccc([N+](=O)[O-])cc2)cc1 | inactive: 106%
44 | C(Cc1nn[nH]n1)Cc1nn[nH]n1 | inactive: 97.1%
45 | CC(C)C(=O)NC(Sc1ccccc1)C(Cl)(Cl)Cl (configuration not stated) | inactive: 94.3%
46 | O=P(Nc1nccs1)(c1ccccc1)c1ccccc1 | inactive: 103%
47 | c1nnnn1CCn1cnnn1 | inactive: 102%
